# Properties, as collected for the OPERA models

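The OPERA project collected these measurements from public sources as training and test data for property models. The files give a single number for a compound and property, which may rest on several reports. Method and conditions are not stated for these values. The measured form (salt, isomer or mixture) is not always the one drawn. Unmarked limits or estimates from the upstream databases cannot be ruled out.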

Melting points are in °C. Boiling points are in °C, nominally at 760 mmHg. logP is the log10 of the octanol-water partition coefficient; higher is more lipophilic. Solubility in water is on a log10 molar scale (set defined at 25 °C). Vapor pressures (log10 mmHg) refer to near room temperature, 15 to 30 °C; higher is more volatile. Henry's law constant (air-water partitioning) is log10 of atm·m3/mol, nominally at 25 °C.

* CCOC(=O)c1cn(C2CC2)c2cc(F)c(F)cc2c1=O: MP 229.2 °C; log Kow 1.6; log S -4.274 (log10 mol/L); log vapor pressure -12.59 (log10 mmHg)
* CCCCC1(CCCC)c2ccccc2-c2ccc(C(=O)C(C)(C)N3CCOCC3)cc21: MP 67.95 °C; log Kow 6.105; log S -6.788 (log10 mol/L)
* C[Si](C)(C)O[Si](C)(C)O[Si](C)(C)O[Si](C)(C)O[Si](C)(C)O[Si](C)(C)O[Si](C)(C)O[Si](C)(C)C [Octadecamethyloctasiloxane]: MP -63 °C; log Kow 7.7
* CCCc1nc2c(C)cc(-c3nc4ccccc4n3C)cc2[nH]1: MP 130.7 °C; log Kow 3.49; log S -4.813 (log10 mol/L); log vapor pressure -12.34 (log10 mmHg)
* C[Si](C)(C)O[Si](C)(CCCOCC(O)CO)O[Si](C)(C)C (centres undefined): log Kow 5.25; log S -4.436 (log10 mol/L)
* CCO[Si](CC[Si](OCC)(OCC)OCC)(OCC)OCC [1,2-Bis(triethoxysilyl)ethane]: MP -34 °C; log vapor pressure -2.648 (log10 mmHg)
* CCC=C1OC(=O)c2ccccc21 [3-Propylidenephthalide]: bp 318 °C; log S -2.204 (log10 mol/L); log vapor pressure -3.524 (log10 mmHg)
* CCCCCCCC/C=C\CCCCCCCCNCCCNCCCN [(Z)-N-(3-Aminopropyl)-N'-9-octadecenylpropane-1,3-diamine]: MP 17 °C; log Kow -0.3; log S -3.718 (log10 mol/L)
* Nc1ccc(Br)c(C(F)(F)F)c1 [4-Bromo-alpha,alpha,alpha-trifluoro-m-toluidine]: log Kow 2.7; log S -2.465 (log10 mol/L)
* Nc1ccc(F)cc1-c1ccc(Cl)c(Cl)c1 [3',4'-Dichloro-5-fluoro-[1,1'-biphenyl]-2-amine]: MP 60.5 °C; bp 357 °C; log Kow 4.3; log S -4.616 (log10 mol/L)
* CCCCOCCOC(=O)CCCCC(=O)OCCOCCCC [Bis(2-butoxyethyl) adipate]: bp 322 °C; log S -3.535 (log10 mol/L)
* NC(=O)NCCCC[C@H](N)C(=O)O [Homocitrulline]: MP 211.5 °C; log S 0.501 (log10 mol/L)
* CCOC(=O)CC(NC1CCC(CC2CCC(NC(CC(=O)OCC)C(=O)OCC)CC2)CC1)C(=O)OCC (centres undefined) [Desmophen LS 2973]: MP -1.8 °C; log Kow 5.4; log vapor pressure -4.79 (log10 mmHg)
* CCCCCCCCC(=O)OCC(COC(=O)CCCCCCCC)OC(=O)CCCCCCCC [Tripelargonin]: log S -6.74 (log10 mol/L); log vapor pressure -5.385 (log10 mmHg)
* Nc1ccc(F)cc1 [4-Fluoroaniline]: log vapor pressure -0.068 (log10 mmHg); Henry's law constant -4.932 (log10 atm·m3/mol)
* CC1(C)CC(O)CC(C)(CN)C1 (centres undefined) [Cyclohexanol, 3-(aminomethyl)-3,5,5-trimethyl-]: log Kow 0.96; log vapor pressure -1.176 (log10 mmHg)
* CCON [Hydroxylamine, O-ethyl-]: MP -38.2 °C; bp 68 °C; log Kow -0.7; log vapor pressure 1.943 (log10 mmHg)
* CCCCCCOC(=O)CCCCC [Hexyl hexanoate]: log S -5.324 (log10 mol/L); log vapor pressure -1.608 (log10 mmHg)
* CCOc1ccc(-c2nc(-c3ccccc3)nc(-c3ccccc3O)n2)cc1 [2-[4-(4-Ethoxyphenyl)-6-phenyl-1,3,5-triazin-2-yl]phenol]: MP 172 °C; log S -7.291 (log10 mol/L); log vapor pressure -10.17 (log10 mmHg)
* O=C1CCC2CCCCC2O1 (centres undefined) [Octahydro-2H-1-benzopyran-2-one]: log Kow 1.4; log vapor pressure -2.803 (log10 mmHg)
* Cl.O=C(c1ccc(F)cc1)C1CCNCC1 [p-Fluorophenyl 4-piperidyl ketone hydrochloride]: log Kow -1.1; log vapor pressure -8.727 (log10 mmHg)
* C=C[C@H]1CC[C@H]([C@H]2CC[C@H](CCCCC)CC2)CC1 [trans-4-pentyl-trans-4'-vinylbicyclohexyl]: MP 51.4 °C; bp 351.2 °C; log S -6.942 (log10 mol/L)
* CCCc1ccc(-c2ccc(B(O)O)c(F)c2)cc1 [(3-Fluoro-4'-propyl[1,1'-biphenyl]-4-yl)boronic acid]: log Kow 4.9; log S -6.048 (log10 mol/L); log vapor pressure -6.042 (log10 mmHg)
* Cc1ccc(C(=O)OC(C)C)cc1N=Nc1c(O)c(C(=O)Nc2cc(Cl)c(NC(=O)c3cc4ccccc4c(N=Nc4cc(C(=O)OC(C)C)ccc4C)c3O)cc2Cl)cc2ccccc12: log Kow -0.57; log S -7.007 (log10 mol/L)
* C=CC(C)(O)CCC=C(C)CCC=C(C)C (centres undefined) [Nerolidol]: log Kow 4.5; log S -4.092 (log10 mol/L); log vapor pressure -2.639 (log10 mmHg)
* COC(=O)c1cc(Cl)ccc1Cl [Methyl 2,5-dichlorobenzoate]: log S -3.37 (log10 mol/L); log vapor pressure 0.38 (log10 mmHg); Henry's law constant -4.794 (log10 atm·m3/mol)

Values as listed in the OPERA 2.9 repository of K. Mansouri.